Reference: paper PMC5788404 (Journal of Medicinal Chemistry, 2017)

Protein sequences, listed by entry. Tags and fused reporters are not part of them. Residues count along the entry.
UniProt P40337, 54-213: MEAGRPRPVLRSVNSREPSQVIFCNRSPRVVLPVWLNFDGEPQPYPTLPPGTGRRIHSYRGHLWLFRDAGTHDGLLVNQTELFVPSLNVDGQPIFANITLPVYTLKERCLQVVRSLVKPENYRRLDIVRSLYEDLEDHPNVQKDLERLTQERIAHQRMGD

Assays:
[1] = molecular target: T1, VBC protein (VHL:ElonginB:ElonginC protein complex) (Homo sapiens, UniProt P40337); format: binding; conditions: for GE (group efficiency): based on FP results, GE = ΔpKd/ΔHA (heavy atoms); for fold loss in binding affinity: relative to the comparator of the sentence (4: methyl to ethyl from 1; 20, 21: comparator not named)
T1 construct: made in house

HIF-1α = conditions: HeLa HIF-1α stabilization, comparator not named
[2] = molecular target: T2, VBC complex (VHL:ElonginB:ElonginC) (Homo sapiens, UniProt P40337); format: binding; conditions: on the basis of ITC results
T2 construct: made in house

Row | Structure (SMILES) | GE (group efficiency) [1] | fold loss in binding affinity [1] | fold loss in cellular activity / potency (HIF-1α) | LE ([2]; LE = −RT ln Kd/NHA) | LLE ([2]; LLE = pKd–Log D)
1 | Cc1ncsc1-c1ccc(CNC(=O)[C@@H]2C[C@@H](O)CN2C(=O)[C@@H](NC(=O)C2CC(=O)C2)C(C)(C)C)cc1 [Inhibitor 20, (2S,4R)-1-((S)-3,3-Dimethyl-2-(3-oxocyclobutanecarboxamido)butanoyl)-4-hydroxy-N-(4-(4-methylthiazol-5-yl)benzyl)pyrrolidine-2-carboxamide] | –0.13 | 2 fold | 5 fold | – | –
2 | Cc1ncsc1-c1ccc(CNC(=O)[C@@H]2C[C@@H](O)CN2C(=O)[C@@H](NC(=O)C2COC2)C(C)(C)C)cc1 [Inhibitor 19, (2S,4R)-1-((S)-3,3-Dimethyl-2-(oxetane-3-carboxamido)butanoyl)-4-hydroxy-N-(4-(4-methylthiazol-5-yl)benzyl)pyrrolidine-2-carboxamide] | –0.11 | – | 4 fold | 0.25 kcal × mol^-1 × NHA^-1 | 5.92 kcal × mol^-1 × NHA^-1
3 | CC(=O)N1CC(C(=O)N[C@H](C(=O)N2C[C@H](O)C[C@H]2C(=O)NCc2ccc(-c3scnc3C)cc2)C(C)(C)C)C1 [Inhibitor 21, (2S,4R)-1-((S)-2-(1-Acetylazetidine-3-carboxamido)-3,3-dimethylbutanoyl)-4-hydroxy-N-(4-(4-methylthiazol-5-yl)benzyl)pyrrolidine-2-carboxamide] | –0.25 | 20 fold | 11 fold | – | –
